We go through two compounds from ChEMBL document CHEMBL1129215, “(Dipropylamino)-tetrahydronaphthofurans: centrally acting serotonin agonists and dopamine agonists-antagonists” (Bioorg Med Chem Lett, 1997).

By UniProt entry, the sequences of proteins in these tests, tags left out.
UniProt P08908, whole entry: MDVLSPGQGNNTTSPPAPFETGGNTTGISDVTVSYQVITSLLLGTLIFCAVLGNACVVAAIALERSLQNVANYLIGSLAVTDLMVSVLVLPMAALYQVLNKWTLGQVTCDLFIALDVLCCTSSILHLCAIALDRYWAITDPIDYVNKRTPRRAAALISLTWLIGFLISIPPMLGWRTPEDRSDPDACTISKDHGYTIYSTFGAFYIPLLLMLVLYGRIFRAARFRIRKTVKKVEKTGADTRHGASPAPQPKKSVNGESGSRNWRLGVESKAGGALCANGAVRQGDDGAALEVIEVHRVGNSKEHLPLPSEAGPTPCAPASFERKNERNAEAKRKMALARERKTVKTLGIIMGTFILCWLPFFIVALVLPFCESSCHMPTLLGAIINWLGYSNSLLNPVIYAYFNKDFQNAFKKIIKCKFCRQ
UniProt P35462, whole entry: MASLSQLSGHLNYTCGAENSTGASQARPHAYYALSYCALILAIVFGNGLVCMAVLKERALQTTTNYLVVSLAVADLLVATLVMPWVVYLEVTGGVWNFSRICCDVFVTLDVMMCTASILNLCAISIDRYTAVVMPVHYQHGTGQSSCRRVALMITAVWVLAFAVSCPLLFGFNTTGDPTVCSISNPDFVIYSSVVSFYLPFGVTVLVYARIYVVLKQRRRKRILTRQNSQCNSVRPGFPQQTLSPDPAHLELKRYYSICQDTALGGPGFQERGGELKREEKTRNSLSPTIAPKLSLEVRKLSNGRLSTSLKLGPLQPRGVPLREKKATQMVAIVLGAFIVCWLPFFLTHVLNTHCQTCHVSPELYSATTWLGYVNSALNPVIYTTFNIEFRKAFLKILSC

Each structure is given as a SMILES string.

Experiment [1] has as its target 5-hydroxytryptamine receptor 1A (Homo sapiens, UniProt P08908). Description: Tested in vitro for the inhibition of [3H]8-OH-DPAT binding to 5-hydroxytryptamine 1A receptor, expressed in cloned CHO cells. It is filed as cell-based.
The target in experiment [2] is D(3) dopamine receptor (Homo sapiens, UniProt P35462). Description: biochemical.

In the case of `CCCN1CC[C@H]2c3c(O)cccc3CC[C@H]21`, the Ki in experiment [1] is 0.2 nM. As for `CCCN(CCC)C1CCc2cccc(O)c2C1` (configuration not stated) [8-OH-DPAT], the Ki in experiment [2] is 259 nM.

For orientation: Ki means a dissociation constant, usually derived from enzyme kinetics or from competition with a known ligand. High values mean lower affinity, low ones higher affinity.
